Measured values reported in ChEMBL document CHEMBL1149434, “New cannabidiol derivatives: synthesis, binding to cannabinoid receptor, and evaluation of their antiinflammatory activity” (J Med Chem, 2006).

Chains of the proteins cited; added tags and fusions are not shown.
UniProt P20272, whole entry: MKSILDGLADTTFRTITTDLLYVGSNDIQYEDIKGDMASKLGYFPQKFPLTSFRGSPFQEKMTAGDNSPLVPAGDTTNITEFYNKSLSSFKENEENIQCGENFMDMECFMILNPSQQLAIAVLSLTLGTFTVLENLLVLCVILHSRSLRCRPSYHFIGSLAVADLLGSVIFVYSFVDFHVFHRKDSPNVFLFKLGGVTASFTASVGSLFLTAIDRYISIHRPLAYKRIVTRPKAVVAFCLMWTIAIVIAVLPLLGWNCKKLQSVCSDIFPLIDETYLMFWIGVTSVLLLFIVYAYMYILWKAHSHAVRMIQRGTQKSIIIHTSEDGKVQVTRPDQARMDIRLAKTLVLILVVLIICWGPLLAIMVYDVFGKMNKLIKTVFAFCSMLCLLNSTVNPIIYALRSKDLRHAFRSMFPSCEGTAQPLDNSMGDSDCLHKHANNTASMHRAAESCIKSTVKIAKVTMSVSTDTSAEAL

Biological target: Cannabinoid receptor 1 (Rattus norvegicus, UniProt P20272)
Assay: Displacement of [3H]HU243 from CB1 receptor in Sabra rat brain
How it was run: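 Synaptosomal membranes (3-4 µg) from male rat brain (250-300 g) were incubated with [3H]HU-243 for 90 min at 30 °C with test compound or vehicle (fatty-acid-free BSA 0.5 mg/mL final). Bound and free ligand were separated by centrifugation. Nonspecific binding was defined with 50 nM unlabeled HU-243. Ki was obtained by Cheng-Prusoff. Triplicates, three independent experiments.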

Compound: C=C(C)[C@@H]1CCC(C)=C[C@H]1c1c(O)cc(CCCCC)cc1O [CANNABIDIOL]
- Ki: > 10 µM
